# Values quoted from earlier work in patent US4255433A, “(+)-(3-Methyl-4-oxo-5N-piperidinothiazolidin-2-ylidene)acetic acid esters, method of preparation and use” (Godecke Aktiengesellschaft, priority 1979, dated 1981).
# Tested on: mice
# Conditions: mouse, in vivo; cited from earlier work
smiles,measurement,value
"Nc1nc(N)c2nc(-c3ccccc3)c(N)nc2n1 [Compound G, 6-phenyl-2,4,7-pteridinetriamine]",LD50,450 mg/kg
